High-throughput results (PubChem)
NALP1 inh: inhibitors of NALP1 inflammasome in yeast; 280,000 tested, 0.61% active; S. cerevisiae NALP1/ASC/caspase-1 growth, X-gal OD620, 72 h; inhibition, % at 10 µM; AID 2071; in the data active = inhibition mostly above about 24%, no sharp cut-off; inactive = mostly below about 32%
MC4R barr agon: agonists of human melanocortin 4 receptor (MC4R) beta-arrestin | P32245 | U2OS MC4R beta-arrestin complementation, luminescence; percent of melanotan II response, DMSO zero | activation, % at 8.9 µM | 360,000 tested, 0.98% active;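 active = activation above a per-plate cutoff, the mean activation of sample wells on that plate plus 3 SD, cut at about 8% in these data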
MC4R antag cAMP: blocks human MC4R cAMP signaling | 360,000 tested, 0.48% active | MC4R-expressing cells, MTII-stimulated cAMP, LANCE TR-FRET | inhibition, % at 6.5 µM;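 active = inhibition above its plate's cutoff, the mean of tested wells on that plate plus 3 SD, cut at about 29% in these data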;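 note: 0% = Melanotan II alone and 100% = Melanotan II plus saturating MCL0020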
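Material: human MC4R-expressing U2OS cells. Probe or stimulus: Melanotan II challenge. Dosing: 6.5 µM single dose. Times: 30-min compound, 1-h challenge, 1-h detection, room temperature. Technique: TR-FRET with Eu-cAMP and labeled anti-cAMP, 671 nm. Replication: singlicate.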
ALR inh: blocks human ALR sulfhydryl oxidase activity; inhibition, % (concentration not given with the values); purified ALR, DTT oxidation, H2O2 HRP-luminol luminescence; P55789; 3.8% of 290,000 active;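 active = mean and each replicate at 75% or more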;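 also: stock transfer was 7.5 nL into about 7.5 µL; 0% = neutral wells and 100% = wells with inactivated enzyme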
HDAC3 inhib: inhibitors of human histone deacetylase 3; inhibition, % at 8.3 µM; recombinant HDAC3, fluorogenic peptide/trypsin coupled, fluorescence; O15379; 320,000 tested, 0.15% active; in the data active = inhibition above about 26%, passing the limit was not always enough; inconclusive = no clear call, values can overlap the other calls
UUG fidelity: modulators of yeast start codon fidelity, primary screen, whole organism, S. cerevisiae, single point, plate reader; S. cerevisiae UUG-firefly luciferase reporter, luminescence/redox ratio; activity score, % at 18.7 µM; actives 0.13% (n = 350,000);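 active means replicate mean at a twofold rise or more, about +100% in these data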;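 further: firefly luciferase made from a UUG start codon reports start codon fidelity; reporter light over untreated wells divided by growth signal over untreated wells; some hits fall short of that in this replicate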
Active calls of the source: *; ? = inconclusive; . = no result given. In the library only some 4.2% were active in any assay of this set; here they are far more common.

NALP1 inh,MC4R barr agon,MC4R antag cAMP,ALR inh,HDAC3 inhib,UUG fidelity,Structure
5,8.8*,1,-7,-4,-7,Cc1cccc(OCc2nnc(SCC(=O)Nc3ccc(C)c(C)c3)o2)c1
-10,-1,0,99*,-3,-22,O=C(CSc1nnc(CNC(=O)c2c(F)cccc2Cl)o1)Nc1ccc2c(c1)OCCO2
.,.,.,.,.,2,O=C(C[C@H]1CC[C@H](NC(=O)c2ccncc2)[C@@H](CO)O1)NCC1CC1
.,.,.,.,.,0,C[C@H](CO)N1C[C@H](C)[C@H](CN(C)C(=O)Cc2ccccn2)Oc2ncc(C#CC3CC3)cc2C1=O
.,.,.,.,.,-2,CCC(=O)Nc1ccc2c(c1)C(=O)N(C)[C@H]1CC[C@H](CC(=O)Nc3ccc(OC)cc3)O[C@@H]1CO2
22,-1,9,99*,-6,-14,CCOC(=O)c1ccc(NC(=O)CSc2nnc(CNC(=O)c3c(F)cccc3Cl)o2)cc1
0,0,13,84*,6,-7,CCOC(=O)c1c(NC(=O)CSc2nnc(CNc3ccc(Cl)cc3)o2)sc(C)c1C
-6,-3,6,98*,-1,3,O=C(CSc1nnc(CNC(=O)c2c(F)cccc2F)o1)Nc1ccc2c(c1)OCO2
.,.,.,.,.,-7,C[C@H]1CN([C@@H](C)CO)C(=O)c2cc(-c3ccc(C(=O)N(C)C)cc3)cnc2O[C@@H]1CN(C)C(=O)CN(C)C
9,-2,-26,100*,0,.,O=c1cnnc(Nc2ccc(Nc3ccccc3)cc2)[nH]1
37*,0,6,5,-9,.,Cc1ccc(/C=C/c2ccc(=O)n(Cc3ccccc3Cl)n2)cc1
9,-1,-2,-2,5,.,Cc1ccc(/C=C/c2ccc(=O)n(Cc3ccc(F)cc3)n2)cc1
17,-2,12,99*,4,-22,S=C(NCCCN1CCOCC1)Nc1ccc(Nc2ccccc2)cc1
40*,-2,10,2,5,-7,O=C(NCCCN1CCOCC1)C(C(=O)c1ccccc1)n1ccccc1=O (stereo unspecified)
-1,-3,11,?,-2,.,S=C(NCCN1CCOCC1)Nc1ccc(Br)cc1
-12,3,4,98*,-5,.,S=C(NCCCN1CCOCC1)Nc1ccc(-c2nc3ccccc3[nH]2)cc1
8,-2,2,.,-3,-6,S=C(NCCCN1CCOCC1)Nc1ccc(N2CCOCC2)cc1
-7,-3,2,99*,0,-16,S=C(NCCN1CCOCC1)Nc1ccc(Nc2ccccc2)cc1
-1,1,19,.,5,-28,CN(C)CCNC(=S)Nc1ccc(-c2nc3ccccc3[nH]2)cc1
.,.,.,.,.,-18,C[C@@H]1CN([C@H](C)CO)C(=O)c2cccc(NC(=O)C3CCOCC3)c2O[C@@H]1CN(C)S(C)(=O)=O
25,-3,11,95*,2,-25,S=C(NCCN1CCOCC1)Nc1ccc(Cl)cc1Cl
0,-3,3,99*,0,-16,O=C1CCCN1CCCNC(=S)Nc1ccc(Nc2ccccc2)cc1
0,-1,12,1,10,-17,O=C1CCCN1CCCNC(=S)Nc1ccccc1
.,.,.,.,.,-13,COc1ccc(S(=O)(=O)Nc2ccc3c(c2)C(=O)N([C@@H](C)CO)C[C@@H](C)[C@@H](CN(C)C(=O)NC(C)C)O3)cc1
18,3,2,.,0,-7,Cc1ccc(C2CC(c3ccc(Cl)cc3)n3nc(N)nc3N2)cc1 (stereo unspecified)
40*,0,2,-8,10,-16,Clc1ccc(C2CSc3c4ncnc-4ncn32)cc1 (stereo unspecified)
19,-2,3,96*,-3,.,CCOc1cnn(-c2ccccc2)c(=O)c1Cl
-11,-2,-4,98*,-3,-11,COc1cnc(SCc2ccc(Cl)cc2Cl)nc1Cl
.,-1,5,7,6,.,CCSc1cnn(-c2ccccc2)c(=O)c1Cl
19,-2,15,6,2,-12,COc1ccc(Cl)cc1CSc1n[nH]c(C)n1
11,1,-3,98*,8,-11,COc1cnn(-c2ccccc2)c(=O)c1SCc1ccc(Cl)cc1Cl
.,.,.,.,.,1,C=CC[C@@]1(C(=O)NCC(O)CO)N=C(c2ccc(OCCCO)cc2)O[C@@H]1c1ccccc1 (stereo partly specified)

4 compounds from above, ordered by the value under NALP1 inh, smallest number first.
SMILES	NALP1 inh
Cc1ccc(C2CC(c3ccc(Cl)cc3)n3nc(N)nc3N2)cc1 (stereo unspecified)	18
COc1ccc(Cl)cc1CSc1n[nH]c(C)n1	19
S=C(NCCN1CCOCC1)Nc1ccc(Cl)cc1Cl	25
Clc1ccc(C2CSc3c4ncnc-4ncn32)cc1 (stereo unspecified)	40*

Ordered by number of heavy atoms (smallest number first): some entries from above
NALP1 inh,MC4R barr agon,MC4R antag cAMP,ALR inh,HDAC3 inhib,UUG fidelity,Structure
19,-2,3,96*,-3,.,CCOc1cnn(-c2ccccc2)c(=O)c1Cl
11,1,-3,98*,8,-11,COc1cnn(-c2ccccc2)c(=O)c1SCc1ccc(Cl)cc1Cl
.,.,.,.,.,-13,COc1ccc(S(=O)(=O)Nc2ccc3c(c2)C(=O)N([C@@H](C)CO)C[C@@H](C)[C@@H](CN(C)C(=O)NC(C)C)O3)cc1
